The values that follow come from patent publication US20230018670A1.

This assay deals with T1, B7H3 on human melanoma and pediatric cancer cell lines (human) (UniProt Q5ZPR3).
T1 sequence (looked up): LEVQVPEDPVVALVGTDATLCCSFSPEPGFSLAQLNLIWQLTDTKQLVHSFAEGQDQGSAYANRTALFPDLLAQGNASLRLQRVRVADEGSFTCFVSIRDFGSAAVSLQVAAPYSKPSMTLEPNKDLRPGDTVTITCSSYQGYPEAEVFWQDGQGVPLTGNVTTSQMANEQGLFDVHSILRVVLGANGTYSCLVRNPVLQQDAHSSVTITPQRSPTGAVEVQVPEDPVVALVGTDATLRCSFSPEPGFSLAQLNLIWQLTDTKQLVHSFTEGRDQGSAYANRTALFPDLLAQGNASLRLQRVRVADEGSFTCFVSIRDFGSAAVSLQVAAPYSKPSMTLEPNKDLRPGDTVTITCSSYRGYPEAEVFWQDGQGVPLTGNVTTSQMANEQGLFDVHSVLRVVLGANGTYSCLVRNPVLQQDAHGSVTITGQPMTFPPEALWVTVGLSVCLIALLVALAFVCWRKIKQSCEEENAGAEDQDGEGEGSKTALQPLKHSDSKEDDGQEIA
The assay can be described thus: flow cytometry on M21 cells (human melanoma, GD2+ B7H3+; GD2 arm may add), 1 ug antibody per million cells, GAH PE.

B1: Invenra B7H3 I7-01xGD2-2 (bispecific antibody, V domains shown)
VL 1: DIQMTQSPSSLSASVGDRVTITCRASQSVSSAVAWYQQKPGKAPKLLIYSASSLYSGVPSRFSGSRSGTDFTLTISSLQPEDFATYYCQQSGRSLYTFGQGTKVEIK
VH 1: EVQLVESGGGLVQPGGSLRLSCAASGFTFSTYYIHWVRQAPGKGLEWVAWIHPSGKYTYYADSVKGRFTISADTSKNTAYLQMNSLRAEDTAVYYCARHYQVGAMDYWGQGTLVTVSS
VH 2: EVQLVESGGGLVQPGGSLRLSCAASGFSFTGYNMNWVRQAPGKGLEWVAAIDPYYGGTYYADSVKGRFTISADTSKNTAYLQMNSLRAEDTAVYYCARGMEYWGQGTLVTVSS
VL 2: DIQMTQSPSSLSASVGDRVTITCRSSQSLVHRNGNTYLHWYQQKPGKAPKLLIHKVSNRFSGVPSRFSGSGSGTDFTLTISSLQPEDFATYYCSQSTHVPPLTFGQGTKVEIK
The molecule B1 gave an MFI of 362 MFI.
